## Yeast mating assay 1: variants of the scFv Ab-14

Reference: Engelhart et al. 2022, doi:10.1038/s41597-022-01779-4. File: FLAb, binding data.

Binding partner: SARS-CoV-2 spike HR2 peptide, sequence PDVDLGDISGINAS.

Each scFv is VH, a (GGGGS)3 linker, VL, as in the parent Ab-14, and differs from it in the CDRs of the light chain only.
VH: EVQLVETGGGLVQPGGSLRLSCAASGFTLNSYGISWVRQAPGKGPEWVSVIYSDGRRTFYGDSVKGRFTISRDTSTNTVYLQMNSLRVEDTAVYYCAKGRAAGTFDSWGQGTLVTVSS
VL: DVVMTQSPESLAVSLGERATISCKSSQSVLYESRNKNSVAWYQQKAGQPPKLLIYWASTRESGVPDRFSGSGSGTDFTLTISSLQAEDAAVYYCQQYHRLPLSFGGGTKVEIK

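Phage display of a naive human antibody library on the peptide gave the parent. In library AAYL50, one, two or three CDR residues were substituted; doubles and triples were drawn at random. The scFvs were displayed on barcoded MATa yeast, the peptide on MATalpha yeast. The frequency of each diploid, read from paired DNA barcodes, reflects how well the two displayed proteins bind. Scores were corrected for input abundance and mapped to Kd with protein pairs of known affinity run in the same pool. There are three technical replicates.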

Each variant is given by its three light chain CDRs, as the data file delimits them; those of the parent are KSSQSVLYESRNKNSVA, WASTRES, QQYHRLPLS.
Values are log10 of the apparent Kd in nM; lower means stronger binding.
The mean shown is taken over the replicates in which the pair was detected.
An entry "n.d." has no value in the source: the pair was not observed among the diploids in that replicate. This suggests poor binding but is not conclusive.
In this assay the parent's reference entry averaged 0.65; its copy inside this library read 1.68.
Three control strains display no target. For library AAYL50, 18% of the pairings with them gave a signal, with a median of 4.19 and one signal in twenty below 2.99, so weak values seen in few replicates may be background. Also given: how often the same scFv was detected with the empty control strains, with their mean in brackets.

| # | CDR-L1 | CDR-L2 | CDR-L3 | log10 Kd, replicates | mean log10 Kd (nM) | control signals |
|---|---|---|---|---|---|---|
| 1 | KSVQSVLYESDNKNSVA | WASTRES | QQDHRLPLS | 0.49 / 0.79 / 0.56 | 0.61 | 1/9 (4.91) |
| 2 | QSSQSVLYETRNKNSVA | WASTRES | QQYERLPLS | 2.94 / 2.40 / 2.48 | 2.61 | 2/9 (4.15) |
| 3 | KSSISVLYESRNKNSVA | WASTRES | QNYHRLRLS | n.d. / n.d. / n.d. | n.d. | 1/9 (3.36) |
| 4 | KSSQSVLYEERNKNSVA | WASTRES | QQYQRLPLS | 0.59 / 0.83 / 0.67 | 0.70 | 6/9 (4.44) |
| 5 | KSSQSVLYESRNKQSVA | AASTRES | QQYHRLPLG | 1.33 / 1.26 / 1.35 | 1.31 | 2/9 (2.88) |
| 6 | KSSQSVLYESRNKESVA | NASTRES | QQYHVLPLS | 0.19 / 0.44 / 0.26 | 0.30 | 3/9 (4.67) |
| 7 | KSSQTVLYESRNKNSVA | WASTRES | QQYFRLPLS | n.d. / 3.55 / 4.15 | 3.85 | 2/9 (3.99) |
| 8 | KSSQSVQYESNNKLSVA | WASTRES | QQYHRLPLS | 0.75 / 1.02 / 0.69 | 0.82 | 0/9 |
| 9 | KSSQSVLYESRYKNSVA | WASTRES | QQIHRLSLS | n.d. / n.d. / n.d. | n.d. | 0/9 |
| 10 | KMSQPVLYESRNKNSVA | WASTRES | QQYHKLPLS | 0.24 / 0.54 / 0.35 | 0.38 | 4/9 (5.18) |
| 11 | KSSQSVLYESRNKNSVA | PASTRYS | QQYHRLNLS | n.d. / n.d. / n.d. | n.d. | 1/9 (2.92) |
| 12 | KSSHSVLYESRNKNSVA | IASTRES | QQYHRLPLR | n.d. / n.d. / n.d. | n.d. | 0/9 |
| 13 | KSSQSVLYESRNKNMVA | WASTLES | QQYHRLQLS | n.d. / n.d. / 5.22 | 5.22 | 0/9 |
| 14 | KSSQSVLYESRNKNSNA | WASTRES | QPYHRLPLH | n.d. / n.d. / n.d. | n.d. | 1/9 (4.26) |
| 15 | KSSVSVLYESRNKNSVV | WASTRWS | QQYHRLPLS | 3.34 / n.d. / n.d. | 3.34 | 0/9 |
| 16 | KSSQSVLYESRNKNSVA | WASDRES | QQYHDLPLI | 2.96 / 2.79 / 3.68 | 3.14 | 3/9 (3.66) |
| 17 | KSSQSVLYESRNKPSVA | YASTRER | QQYHRLPLS | 1.46 / 1.56 / 1.69 | 1.57 | 7/9 (4.83) |
| 18 | MSSQSVLYESRNKNSVA | WASTYES | QQYHALPLS | n.d. / n.d. / n.d. | n.d. | 3/9 (5.42) |
| 19 | KSVQSVLSESRNKNSVA | WASTYES | QQYHRLPLS | 3.62 / n.d. / n.d. | 3.62 | 1/9 (3.44) |
| 20 | KSSQFVLYESRNKNSVA | WASTTYS | QQYHRLPLS | n.d. / n.d. / n.d. | n.d. | 0/9 |
| 21 | KSSQSVLKESRNKNSQA | WASTRES | QQYHRLPLA | 3.43 / n.d. / n.d. | 3.43 | 2/9 (3.79) |
| 22 | KSSQSVAYESRNKNSVA | WASTRES | KQEHRLPLS | 1.96 / 2.13 / 1.95 | 2.01 | 1/9 (5.03) |
| 23 | KSSQSVLYESINKNSCA | DASTRES | QQYHRLPLS | 1.11 / 1.10 / 1.01 | 1.07 | 3/9 (4.53) |
| 24 | TSSQSVLYESRNKNSVA | WASTRML | QQYHRLPLS | 1.33 / 1.68 / 1.61 | 1.54 | 0/9 |
| 25 | KSSQSVLYESRNKNSVA | WAATRES | HQYMRLPLS | 4.27 / n.d. / 3.95 | 4.11 | 5/9 (4.24) |
| 26 | KSSYSFLYESRNINSVA | WASTRES | QQYHRLPLS | 0.72 / 0.95 / 0.98 | 0.88 | 2/9 (4.86) |
| 27 | KSEQSVLYESRNKNKVA | WASTRES | CQYHRLPLS | n.d. / n.d. / n.d. | n.d. | 0/9 |
| 28 | KSSQSVLYESREKNSVA | WASTRES | STYHRLPLS | 1.09 / 1.18 / 1.12 | 1.13 | 0/9 |
| 29 | KSSDSVLYESPNKNSVA | KASTRES | QQYHRLPLS | -0.40 / 0.02 / -0.23 | -0.21 | 2/9 (4.05) |
| 30 | KSSQSVLYEWRNKNSVA | WASTRDS | QQYHRLWLS | 3.34 / 2.51 / 3.41 | 3.09 | 6/9 (3.99) |
| 31 | CSSQSVLYESRNKNSVA | WAETRES | QQYHHLPLS | 1.85 / 1.82 / 1.89 | 1.85 | 3/9 (4.82) |
| 32 | KSSQSVLYESRNKQSYA | WASTRES | QQYWRLPLS | n.d. / 2.79 / n.d. | 2.79 | 1/9 (4.67) |
| 33 | KSSQSVLYESRQFNSVA | MASTRES | QQYHRLPLS | 1.04 / 1.18 / 1.31 | 1.18 | 1/9 (3.84) |
| 34 | KSCQSVLYESRNKNSVA | WASTFES | QQYHRLPLS | 2.78 / n.d. / n.d. | 2.78 | 1/9 (4.24) |
| 35 | KSSQSVLYESRVKISLA | WASTRES | QQYHRLPLS | 4.99 / 5.52 / n.d. | 5.25 | 3/9 (3.27) |
| 36 | KSSQSYLYTSGNKNSVA | WASTRES | QQYHRLPLS | 0.43 / 0.66 / 0.90 | 0.66 | 0/9 |
| 37 | CSSLSVLYESRNKNSVA | WASTRES | QQYHRLPLF | 3.23 / 2.74 / 2.52 | 2.83 | 2/9 (3.29) |
| 38 | KSSQSVAYESRNKNSVA | WASTRES | QQKHRLPLE | 4.30 / 4.17 / 4.93 | 4.47 | 8/9 (4.31) |
| 39 | KSSQSVLAESRQKNSVA | WAFTRES | QQYHRLPLS | 0.49 / 0.69 / 0.61 | 0.59 | 3/9 (4.24) |

Repeated from above, the 3 best binders with a signal in all replicates:

| CDR-L1 | CDR-L2 | CDR-L3 | log10 Kd, replicates | mean log10 Kd (nM) | control signals |
|---|---|---|---|---|---|
| KSSDSVLYESPNKNSVA | KASTRES | QQYHRLPLS | -0.40 / 0.02 / -0.23 | -0.21 | 2/9 (4.05) |
| KSSQSVLYESRNKESVA | NASTRES | QQYHVLPLS | 0.19 / 0.44 / 0.26 | 0.30 | 3/9 (4.67) |
| KMSQPVLYESRNKNSVA | WASTRES | QQYHKLPLS | 0.24 / 0.54 / 0.35 | 0.38 | 4/9 (5.18) |